Consider two molecules from paper PMC6642198, “Molecular basis of the scalp-ear-nipple syndrome unraveled by the characterization of disease-causing KCTD1 mutants” (Scientific Reports, 2019).

The labels stand for the following.
B1: KCTD1 (full-length, residues 1-257) (natural protein, human, UniProt Q719H9 1-257, looked up)
chain: MSRPLITRSPASPLNNQGIPTPAQLTKSNAPVHIDVGGHMYTSSLATLTKYPESRIGRLFDGTEPIVLDSLKQHYFIDRDGQMFRYILNFLRTSKLLIPDDFKDYTLLYEEAKYFQLQPMLLEMERWKQDRETGRFSRPCECLVVRVAPDLGERITLSGDKSLIEEVFPEIGDVMCNSVNAGWNHDSTHVIRFPLNGYCHLNSVQVLERLQQRGFEIVGSCGGGVDSSQFSEYVLRRELRRTPRVPSVIRIKQEPLD
notes: KCTD1, full-length protein, residues 1-257; Gene bought from Sigma Aldrich, cloned into pETM11; also called wild-type KCTD1; Potassium Channel Tetramerization Domain protein 1; source: E. coli BL21(DE3), purified (His-trap, TEV digestion, Superdex 200); not shown: polyHis, N-terminal, cleaved
B2: N-terminal domain of the transcription factor AP-2α (AP-2α^NTD, residues 1-165) (domain or fragment, UniProt P05549 1-165, looked up)
chain: MLWKLTDNIKYEDCEDRHDGTSNGTARLPQLGTVGQSPYTSAPPLSHTPNADFQPPYFPPPYQPIYPQSQDPYSHVNDPYSLNPLHAQPQPQHPGWPGQRQSQESGLLHTHRGLPHQLSGLDPRRDYRRHEDLLHGPHALSSGLGDLSIHSLPHAIEEVPHVEDP
modifications: NT-647 reactive dye on primary amines (in the microscale thermophoresis only)
notes: transcription factor AP-2α, N-terminal region, residues 1-165; natively unfolded by CD; also called N-terminal region of AP-2α; source: recombinant, cells lysed in 8 M urea, purified (Ni-NTA, HPLC), lyophilized

Conditions in all cases: both partners purified
The target in assay [1] is B2. In words: ITC; ITC200, 22 °C; KCTD1 or mutants (72 µM expressed as pentamer) titrated into AP-2α^NTD (7 µM); single-binding site model. (In general: ITC needs no label: the signal is the heat of the interaction.)
For assay [2], the target named is B1. The assay can be described thus: ELISA; 3 µM AP-2α^NTD coated; KCTD1 or single point mutants from 1.8 nM to 1.8 µM; detected with anti-KCTD1 antibody; apparent binding constant. A general note: In an ELISA, binding on a coated surface is turned into a signal by an enzyme label.
Assay [3] addresses B1. In words: ITC; ITC200, 22 °C; KCTD1 or mutants (72 µM expressed as pentamer) titrated into AP-2α^NTD (7 µM); single-binding site model.

As to B1, in assay [1], the dH is -20.2 ± 0.1 kcal/mol and the “stoichiometry N” value was approximately 1.

As for B2, the figures for the Kd in assay [2] and in assay [3] were 593 ± 69 nM and 850 ± 115 nM, respectively.

One may read the stoichiometry N as the number of molecules, sites or subunits per partner or assembly.
